The experiment concerns PKCζ. As to conditions: PDBu-treated B cells, Western blot.

`CCCC(=O)O[C@@H]1[C@@H](C)[C@@]2(O)[C@@H](C=C(CO)C[C@]3(O)C(=O)C(C)=C[C@@H]23)[C@@H]2C(C)(C)[C@]12OC(=O)CCC` [PDBu]: the “level of expression of PKCζ” value was “decreased only slightly”.

Values taken from US20020019332A1, “METHOD OF INDUCING APOPTOSIS IN B-LYMPHOCYTES” (priority 1999, published 2002).
